The structures appear in SMILES notation. pKi: −log10 of the molar value.

The values that follow come from ChEMBL document CHEMBL3217546, “The synthesis and receptor binding affinities of DDD-016, a novel, potential, atypical antipsychotic” (Medchemcomm, 2012).

For the experiment, the target named is T1, Alpha-1A adrenergic receptor (Homo sapiens, UniProt P35348).
T1 sequence (P35348 whole entry): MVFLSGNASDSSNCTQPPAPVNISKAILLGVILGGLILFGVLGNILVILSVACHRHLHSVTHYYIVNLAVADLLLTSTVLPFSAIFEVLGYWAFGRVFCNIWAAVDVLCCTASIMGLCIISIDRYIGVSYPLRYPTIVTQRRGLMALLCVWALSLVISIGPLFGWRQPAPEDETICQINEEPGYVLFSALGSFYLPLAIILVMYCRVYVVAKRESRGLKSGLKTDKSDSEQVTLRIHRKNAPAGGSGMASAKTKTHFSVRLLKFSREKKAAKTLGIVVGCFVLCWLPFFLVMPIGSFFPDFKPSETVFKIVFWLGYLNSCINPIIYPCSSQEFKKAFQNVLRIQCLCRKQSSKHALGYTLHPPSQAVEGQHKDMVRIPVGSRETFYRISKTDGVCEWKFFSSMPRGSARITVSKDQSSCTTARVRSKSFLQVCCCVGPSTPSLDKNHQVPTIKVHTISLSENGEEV

What is called pKi is −log10 of the Ki, conventionally taken in molar units. Molecule `Cc1cc2c(s1)Nc1ccccc1N=C2N1CCN(C)CC1` [OLANZAPINE] showed a pKi of 6.00.
